Data reported in ChEMBL document CHEMBL1671644, “Inhibition of human immunodeficiency virus type 1 infection by the candidate microbicide dapivirine, a nonnucleoside reverse transcriptase inhibitor” (Antimicrob Agents Chemother, 2009).

Tested on: Human immunodeficiency virus 1
Assay: Antiviral activity against HIV-1 subtype F V029522 infected in human MT4 cells assessed as inhibition of viral replication relative to HIV-1 3B
Assay type: functional
Method in brief: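 MT-4 cells (3 x 10^4/well) infected with site-directed mutants or recombinant clinical isolates (200 TCID50/well) with drug, cultured 3 to 5 days. Viability read by MTT colorimetric antivirogram assay. IC50 by nonlinear regression; fold change = IC50 for the test isolate / IC50 for wild-type HIV-1 IIIB tested in parallel (mean or median).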

## CC(C)Nc1cccnc1N1CCN(C(=O)c2cc3cc(NS(C)(=O)=O)ccc3[nH]2)CC1 [DELAVIRDINE]
  Ratio IC50: 3.1
